Test results taken from ChEMBL document CHEMBL2321770.
Activity calls are given as the source filed them. No cut-off for these calls is given here.

Sequences of proteins named here, by UniProt entry; tags and fusion partners are left off. A change or cut given only in a name is not applied to a line headed by its entry.
UniProt P42338: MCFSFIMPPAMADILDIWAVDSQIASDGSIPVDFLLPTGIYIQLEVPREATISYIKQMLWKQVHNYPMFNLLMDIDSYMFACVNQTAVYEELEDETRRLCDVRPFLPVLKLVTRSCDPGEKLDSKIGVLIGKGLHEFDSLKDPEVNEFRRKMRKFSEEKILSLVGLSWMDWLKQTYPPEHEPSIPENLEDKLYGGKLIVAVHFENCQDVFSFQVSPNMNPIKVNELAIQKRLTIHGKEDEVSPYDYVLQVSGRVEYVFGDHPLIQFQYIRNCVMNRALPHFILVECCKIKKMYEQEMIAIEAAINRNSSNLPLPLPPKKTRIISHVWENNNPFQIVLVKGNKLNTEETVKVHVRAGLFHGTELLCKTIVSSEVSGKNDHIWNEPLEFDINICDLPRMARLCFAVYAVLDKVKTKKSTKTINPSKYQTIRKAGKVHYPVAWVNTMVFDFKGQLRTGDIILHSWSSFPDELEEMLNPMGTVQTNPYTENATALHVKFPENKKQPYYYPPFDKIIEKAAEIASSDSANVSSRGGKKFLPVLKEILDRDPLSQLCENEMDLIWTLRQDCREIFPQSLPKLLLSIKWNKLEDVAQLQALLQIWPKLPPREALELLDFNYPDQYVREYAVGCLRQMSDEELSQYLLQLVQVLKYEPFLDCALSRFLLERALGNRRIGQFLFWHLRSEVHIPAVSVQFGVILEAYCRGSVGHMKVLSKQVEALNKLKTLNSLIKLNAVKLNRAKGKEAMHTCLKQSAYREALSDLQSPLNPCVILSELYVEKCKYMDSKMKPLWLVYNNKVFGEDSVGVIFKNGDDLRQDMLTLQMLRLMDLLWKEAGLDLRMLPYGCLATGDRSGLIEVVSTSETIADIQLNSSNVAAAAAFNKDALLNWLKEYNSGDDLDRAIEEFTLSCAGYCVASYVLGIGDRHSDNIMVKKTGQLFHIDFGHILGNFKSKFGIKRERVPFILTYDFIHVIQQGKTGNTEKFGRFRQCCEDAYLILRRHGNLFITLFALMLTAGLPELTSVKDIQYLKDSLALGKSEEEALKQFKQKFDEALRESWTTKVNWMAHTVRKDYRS
UniProt P48736: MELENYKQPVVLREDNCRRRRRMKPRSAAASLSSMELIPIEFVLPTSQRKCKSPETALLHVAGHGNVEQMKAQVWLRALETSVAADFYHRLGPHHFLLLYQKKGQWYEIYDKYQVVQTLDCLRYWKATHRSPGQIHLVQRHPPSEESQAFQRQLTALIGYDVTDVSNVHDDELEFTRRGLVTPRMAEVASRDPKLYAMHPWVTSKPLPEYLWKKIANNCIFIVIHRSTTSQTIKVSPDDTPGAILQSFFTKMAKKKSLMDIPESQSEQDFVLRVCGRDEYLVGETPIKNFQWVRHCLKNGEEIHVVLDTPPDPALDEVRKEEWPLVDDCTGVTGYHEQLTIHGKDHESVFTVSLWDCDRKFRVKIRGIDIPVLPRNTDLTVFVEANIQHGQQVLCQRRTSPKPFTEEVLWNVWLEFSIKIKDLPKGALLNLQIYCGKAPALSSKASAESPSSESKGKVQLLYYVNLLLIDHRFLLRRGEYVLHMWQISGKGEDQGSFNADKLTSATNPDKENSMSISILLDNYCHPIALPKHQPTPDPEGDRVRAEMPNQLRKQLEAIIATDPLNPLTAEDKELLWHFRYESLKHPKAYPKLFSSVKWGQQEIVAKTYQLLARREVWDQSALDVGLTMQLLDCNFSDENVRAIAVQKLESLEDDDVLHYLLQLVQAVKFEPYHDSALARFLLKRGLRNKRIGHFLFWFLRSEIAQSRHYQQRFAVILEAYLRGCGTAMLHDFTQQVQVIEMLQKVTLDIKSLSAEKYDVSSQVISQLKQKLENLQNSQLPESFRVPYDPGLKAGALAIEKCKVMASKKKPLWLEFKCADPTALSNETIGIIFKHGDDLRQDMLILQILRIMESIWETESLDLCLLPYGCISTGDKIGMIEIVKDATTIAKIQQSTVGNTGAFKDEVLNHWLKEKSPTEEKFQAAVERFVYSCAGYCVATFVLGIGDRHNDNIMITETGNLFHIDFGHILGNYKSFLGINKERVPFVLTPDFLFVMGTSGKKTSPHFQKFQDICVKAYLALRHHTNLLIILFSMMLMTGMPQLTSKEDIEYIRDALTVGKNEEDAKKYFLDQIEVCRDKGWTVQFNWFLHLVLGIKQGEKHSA
UniProt P42336, whole entry: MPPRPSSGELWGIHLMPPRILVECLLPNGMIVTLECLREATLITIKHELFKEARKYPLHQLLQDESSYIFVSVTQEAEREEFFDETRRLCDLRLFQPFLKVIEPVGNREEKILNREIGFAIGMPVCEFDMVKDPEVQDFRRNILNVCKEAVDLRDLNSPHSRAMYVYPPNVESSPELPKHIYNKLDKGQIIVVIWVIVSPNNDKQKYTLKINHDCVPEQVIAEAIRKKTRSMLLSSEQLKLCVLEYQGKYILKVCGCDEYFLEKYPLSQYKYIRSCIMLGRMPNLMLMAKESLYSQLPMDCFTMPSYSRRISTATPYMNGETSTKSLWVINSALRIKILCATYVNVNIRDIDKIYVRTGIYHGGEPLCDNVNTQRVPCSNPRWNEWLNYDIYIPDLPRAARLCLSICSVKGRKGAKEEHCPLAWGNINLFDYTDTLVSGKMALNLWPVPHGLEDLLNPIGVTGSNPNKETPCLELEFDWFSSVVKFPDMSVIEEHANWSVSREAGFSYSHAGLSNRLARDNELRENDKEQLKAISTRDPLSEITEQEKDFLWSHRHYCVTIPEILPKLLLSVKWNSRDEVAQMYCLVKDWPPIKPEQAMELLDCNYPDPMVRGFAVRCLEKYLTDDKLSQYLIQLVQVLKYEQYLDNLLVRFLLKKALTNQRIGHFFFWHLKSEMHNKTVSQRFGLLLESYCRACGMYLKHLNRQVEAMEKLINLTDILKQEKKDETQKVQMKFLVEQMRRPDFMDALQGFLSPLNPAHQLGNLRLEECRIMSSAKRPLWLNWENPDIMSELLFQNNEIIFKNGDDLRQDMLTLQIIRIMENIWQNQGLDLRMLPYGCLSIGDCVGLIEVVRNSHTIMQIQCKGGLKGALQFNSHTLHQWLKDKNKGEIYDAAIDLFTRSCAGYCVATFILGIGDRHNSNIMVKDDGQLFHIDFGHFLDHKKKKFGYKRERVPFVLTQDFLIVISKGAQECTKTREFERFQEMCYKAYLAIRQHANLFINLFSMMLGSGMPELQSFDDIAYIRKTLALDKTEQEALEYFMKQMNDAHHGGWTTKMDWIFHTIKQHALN

How the values were obtained:
[1] = target: Phosphatidylinositol 4,5-bisphosphate 3-kinase catalytic subunit beta isoform (Homo sapiens, UniProt P42338); test: Binding affinity to PI3Kbeta (unknown origin)
[2] = target: Phosphatidylinositol 4,5-bisphosphate 3-kinase catalytic subunit gamma isoform (Homo sapiens, UniProt P48736); test: Binding affinity to PI3Kgamma (unknown origin)
[3] = target: T1, Phosphatidylinositol 4,5-bisphosphate 3-kinase catalytic subunit delta isoform (Homo sapiens) (UniProt O00329); test: Binding affinity to PI3Kdelta (unknown origin)
T1 sequence (whole entry): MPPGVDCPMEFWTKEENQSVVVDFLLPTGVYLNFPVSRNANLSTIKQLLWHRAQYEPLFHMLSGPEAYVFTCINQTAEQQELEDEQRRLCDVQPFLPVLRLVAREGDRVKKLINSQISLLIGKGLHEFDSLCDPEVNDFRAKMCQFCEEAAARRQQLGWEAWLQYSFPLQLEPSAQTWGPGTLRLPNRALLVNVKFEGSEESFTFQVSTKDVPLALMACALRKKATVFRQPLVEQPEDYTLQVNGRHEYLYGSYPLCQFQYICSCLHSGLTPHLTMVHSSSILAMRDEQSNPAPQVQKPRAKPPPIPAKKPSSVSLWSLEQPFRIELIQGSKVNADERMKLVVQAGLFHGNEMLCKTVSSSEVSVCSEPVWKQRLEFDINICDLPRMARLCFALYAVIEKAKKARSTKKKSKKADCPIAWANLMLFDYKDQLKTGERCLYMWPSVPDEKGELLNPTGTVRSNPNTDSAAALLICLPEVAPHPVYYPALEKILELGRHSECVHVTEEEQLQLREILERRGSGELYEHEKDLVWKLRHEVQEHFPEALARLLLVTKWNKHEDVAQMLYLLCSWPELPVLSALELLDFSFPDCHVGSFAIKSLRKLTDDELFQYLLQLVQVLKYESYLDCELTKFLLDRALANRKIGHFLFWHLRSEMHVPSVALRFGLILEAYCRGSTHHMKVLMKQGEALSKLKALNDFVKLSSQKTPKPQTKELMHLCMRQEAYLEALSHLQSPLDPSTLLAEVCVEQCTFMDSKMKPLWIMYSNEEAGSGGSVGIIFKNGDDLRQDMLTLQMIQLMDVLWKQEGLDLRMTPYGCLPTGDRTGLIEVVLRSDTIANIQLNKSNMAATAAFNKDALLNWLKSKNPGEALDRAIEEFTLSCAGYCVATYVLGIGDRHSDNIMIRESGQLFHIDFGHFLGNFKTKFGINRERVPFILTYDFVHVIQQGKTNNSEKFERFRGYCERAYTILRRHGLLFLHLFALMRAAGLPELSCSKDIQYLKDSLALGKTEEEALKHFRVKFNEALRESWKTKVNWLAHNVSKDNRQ

[4] = target: Phosphatidylinositol 4,5-bisphosphate 3-kinase catalytic subunit alpha isoform (Homo sapiens, UniProt P42336); test: Binding affinity to PI3Kalpha (unknown origin)
Homo sapiens [5] = species on record: Homo sapiens; test: Inhibition of PI3K (unknown origin)
Homo sapiens [6] = species on record: Homo sapiens; test: Inhibition of DNA-PK (unknown origin)

Activity [1]	Activity [2]	Activity [3]	Activity [4]	inhibition (Homo sapiens [5])	inhibition (Homo sapiens [6])	SMILES
inactive	inactive	inactive	inactive			O=c1cc(N2CCOCC2)oc2c(-c3ccc(N4CCOCC4)cc3)csc12
inactive	inactive	inactive	inactive			O=c1cc(N2CCOCC2)oc2c(N3CCCCC3)csc12
				Active	Active	Cn1c(=O)n(-c2ccc(C(C)(C)C#N)cc2)c2c3cc(-c4cnc5ccccc5c4)ccc3ncc21
